Results reported in paper PMC4281105 (2014).

Experiment: in vitro
Settings: human, HEp-2 cells

SMILES | CC50 at 5 days | CC50 at 3 days
COCCCNC(=O)c1ccc(Cn2c(=O)c3ccccc3n(Cc3cccc(Br)c3)c2=O)cc1 [Compound 9, 4-((1-(3-Bromobenzyl)-2,4-dioxo-1,2-dihydroquinazolin-3(4H)-yl)methyl)-N-(3-methoxypropyl)benzamide] | 3.7 ± 0.4 µM | –
COCCCNC(=O)c1ccc(Cn2c(=O)c3ccccc3n(Cc3ccc(F)cc3)c2=O)cc1 [Compound 12, 4-((1-(4-Fluorobenzyl)-2,4-dioxo-1,2-dihydroquinazolin-3(4H)-yl)-methyl)-N-(3-methoxypropyl)benzamide] | 7.6 ± 0.2 µM | –
CCc1ccc(Cn2c(=O)n(Cc3ccc(C(=O)NCCCOC)cc3)c(=O)c3ccccc32)cc1 [Compound 18, 4-((1-(4-Ethylbenzyl)-2,4-dioxo-1,2-dihydroquinazolin-3(4H)-yl)-methyl)-N-(3-methoxypropyl)benzamide] | > 50 µM | –
CCOCCCNC(=O)c1ccc(Cn2c(=O)c3ccccc3n(Cc3ccc(C)cc3)c2=O)cc1 [Compound 24, N-(3-Ethoxypropyl)-4-((1-(4-methylbenzyl)-2,4-dioxo-1,2-dihydroquinazolin-3(4H)-yl)methyl)benzamide] | 8.5 ± 0.3 µM | –
Cc1ccc(Cn2c(=O)n(Cc3ccc(C(=O)NCCCOC(C)C)cc3)c(=O)c3ccccc32)cc1 [Compound 25, N-(3-Isopropoxypropyl)-4-((1-(4-methylbenzyl)-2,4-dioxo-1,2-dihydroquinazolin-3(4H)-yl)methyl)benzamide] | 19.3 ± 0.9 µM | –
Cc1ccc(Cn2c(=O)n(Cc3ccc(C(=O)NCCCN(C)C)cc3)c(=O)c3ccccc32)cc1 [Compound 26, N-(3-(Dimethylamino)propyl)-4-((1-(4-methylbenzyl)-2,4-dioxo-1,2-dihydroquinazolin-3(4H)-yl)methyl)benzamide] | 16.6 ± 1.5 µM | –
COCCNC(=O)c1ccc(Cn2c(=O)c3ccccc3n(Cc3ccc(C)cc3)c2=O)cc1 [Compound 28, N-(2-Methoxyethyl)-4-((1-(4-methylbenzyl)-2,4-dioxo-1,2-dihydroquinazolin-3(4H)-yl)methyl)benzamide] | – | > 50 µM
Cc1ccc(Cn2c(=O)n(Cc3ccc(C(=O)NCC4COC4)cc3)c(=O)c3ccccc32)cc1 [Compound 29, 4-((1-(4-Methylbenzyl)-2,4-dioxo-1,2-dihydroquinazolin-3(4H)-yl)methyl)-N-(oxetan-3-ylmethyl)benzamide] | 47 ± 1.9 µM | –
Cc1ccc(Cn2c(=O)n(Cc3ccc(C(=O)NC(C)(C)C)cc3)c(=O)c3ccccc32)cc1 [Compound 36, N-(tert-Butyl)-4-((1-(4-methylbenzyl)-2,4-dioxo-1,2-dihydroquinazolin-3(4H)-yl)methyl)benzamide] | 8.4 ± 0.3 µM | –
Cc1ccc(Cn2c(=O)n(Cc3ccc(C(=O)NC4CCCCC4)cc3)c(=O)c3ccccc32)cc1 [Compound 37, N-Cyclohexyl-4-((1-(4-methylbenzyl)-2,4-dioxo-1,2-dihydroquinazolin-3(4H)-yl)methyl)benzamide] | > 50 µM | –
Cc1ccc(Cn2c(=O)n(Cc3ccc(C(=O)Nc4ccccc4)cc3)c(=O)c3ccccc32)cc1 [Compound 38, 4-((1-(4-Methylbenzyl)-2,4-dioxo-1,2-dihydroquinazolin-3(4H)-yl)methyl)-N-phenylbenzamide] | > 50 µM | –
Cc1ccc(Cn2c(=O)n(Cc3ccc(C(=O)NCc4ccccc4)cc3)c(=O)c3ccccc32)cc1 [Compound 39, N-Benzyl-4-((1-(4-methylbenzyl)-2,4-dioxo-1,2-dihydroquinazolin-3(4H)-yl)methyl)benzamide] | 41.8 ± 7.9 µM | –
Cc1ccc(Cn2c(=O)n(Cc3ccc(C(=O)NCc4ccco4)cc3)c(=O)c3ccccc32)cc1 [Compound 40, N-(Furan-2-ylmethyl)-4-((1-(4-methylbenzyl)-2,4-dioxo-1,2-dihydroquinazolin-3(4H)-yl)methyl)benzamide] | > 50 µM | –
Cc1ccc(Cn2c(=O)n(Cc3ccc(C(=O)Nc4nccs4)cc3)c(=O)c3ccccc32)cc1 [Compound 41, 4-((1-(4-Methylbenzyl)-2,4-dioxo-1,2-dihydroquinazolin-3(4H)-yl)methyl)-N-(thiazol-2-yl)benzamide] | > 50 µM | –
